{"source": "patent US11279678B2", "about": "“5-fluorouracil derivatives, preparation methods and uses thereof” (SHANGHAI ECUST BIOMEDICINE CO., LTD., priority 2017, dated 2022)", "key": {"[1]": {"conditions": "both, Kunming, mouse, in vivo, po"}, "[2]": {"assay": "in vivo", "conditions": "both, Kunming, mouse, po"}}, "note": "Like-named read-outs stand apart in the source and are kept apart here.", "data": [{"smiles": "O=c1[nH]cc(F)c(=O)[nH]1", "note": "[Compound 5-FU, 5-fluorouracil]", "values": [{"measurement": "LD50", "setting": "[1]", "result": 230, "unit": "mg/kg"}, {"measurement": "LD50", "setting": "[2]", "result": 230, "unit": "mg/kg"}]}]}
